Biological target: T1, Aβ42 fibrils (Homo sapiens, UniProt P05067)
T1 construct: commercial Aβ42 peptide (AnaSpec or GL Biochem); purchased AnaSpec or GL Biochem
Assay: ThT control fluorescence turn-on assay with Aβ42 fibrils
Type: binding
Conditions: [Aβ42] = 5 μM, em 485 nm, ex 435 nm
Method: Aβ42 and Aβ42 fibrils was used to control for soluble vs. insoluble amyloid.
text to prepare soluble and fibrillar Aβ42, the UV-vis absorbance was measured for the soluble
Aβ42 used in the control. In a cuvette, 100 μL o f [ A β42] = 20 μM. […]

Amino acid sequences for entries named in this document (tags omitted). Residues count along the entry.
UniProt P05067, 672-713 limits assumed: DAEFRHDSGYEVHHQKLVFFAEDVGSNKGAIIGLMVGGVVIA

Kd: 6 nM
SMILES: Cc1ccc2c(c1)sc(-c1ccc(N(C)C)cc1)[n+]2C [ThT, Thioflavin T]

— article PMC12156033, “N-Alkylamino Stilbene Compounds as Amyloid β Inhibitors for Alzheimer’s Disease Research” (Molecules, 2025)
